AlphaSeq binding of Ab-14 light chain variants to a spike HR2 peptide

Reference: Li et al. 2023, doi:10.1038/s41467-023-39022-2. File: FLAb, binding data.

All variants were tested on one target, the spike HR2 peptide PDVDLGDISGINAS (SARS-CoV-2).

Ab-14 is the parent antibody, in scFv form: VH, then three GGGGS repeats, then VL. The heavy chain is unchanged in all variants.
VH: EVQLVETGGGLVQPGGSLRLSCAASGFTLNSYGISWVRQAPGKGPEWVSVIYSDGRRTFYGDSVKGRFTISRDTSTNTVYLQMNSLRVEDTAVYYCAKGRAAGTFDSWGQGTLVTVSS
VL: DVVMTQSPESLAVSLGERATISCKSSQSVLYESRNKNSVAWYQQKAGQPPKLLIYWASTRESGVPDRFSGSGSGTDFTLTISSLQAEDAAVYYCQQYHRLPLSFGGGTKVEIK

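The parent was found by panning a naive human phage display library on the peptide. This is the validation round: designs drawn from the data on random variants, tested in the same kind of assay. Group labels follow the data file (Ctrl: baseline library sampled from a position-specific scoring matrix, with some repeated check sequences; En: ensemble of fine-tuned language models; GP: Gaussian process model; HC: hill climbing; Gen: genetic algorithm; Gibbs: Gibbs sampling; a sequence that several methods proposed may carry one label only). The assay is AlphaSeq: two haploid yeast populations carry antibody and antigen on their surface. The frequency of each diploid, read from paired DNA barcodes, reflects how well the two displayed proteins bind. A regression on co-assayed BCL2-family reference pairs converts the normalised counts of each replicate to an apparent Kd. The assay was run in six technical replicates.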

Variants are written as CDR1, CDR2 and CDR3 of the light chain (limits as in the source). Parent: KSSQSVLYESRNKNSVA, WASTRES, QQYHRLPLS.
Numbers give log10(Kd / nM), so 0 is 1 nM and 3 is 1 µM. Smaller is tighter.
The mean shown is taken over the replicates in which the pair was detected.
"no signal" marks a missing value. The strain was present, yet no cells mated with the target were sequenced in any replicate, which points to weak or no binding.
A sequence measured in both rounds can read differently, since the two assays cover different ranges.

| CDR-L1 | CDR-L2 | CDR-L3 | group | mean log10 Kd (nM) | detected |
|---|---|---|---|---|---|
| KLSQSNLYEDRNLNNVA | NASQRES | QQYHRLPLM | GP_Gibbs | -0.49 | 6 of 6 |
| TVSQVHGMLSHNKNSVA | DMNTRGE | QQYDRLPLS | En_HC | 0.15 | 6 of 6 |
| KLRQMTHIESFNKNNVA | EMTTRES | QSYDRLPLS | En_HC | 1.32 | 6 of 6 |
| KLQQSVDYESRNKNSVA | EASTRES | QQYHRLPLS | GP_Gen | -0.16 | 6 of 6 |
| KVSPEMEYESRNKASVA | HASTRES | QQYHRLPLS | GP_Gibbs | -0.05 | 6 of 6 |
| KVSEFQRGLMSRQDSIA | DNVTRNS | QQYDRLPLS | En_Gen | 2.28 | 1 of 6 |
| KSSQSTLYESRNLNSVA | DASTRES | QQYHRLPLS | Ctrl | 0.17 | 6 of 6 |
| KLSGLMASSKFAKDNVA | ENNTREK | QQYERLPLS | En_Gen | 2.86 | 6 of 6 |
| KSRQSVLYESRNKNSVA | WASTRES | QQMPRLPLS | Ctrl | 2.65 | 1 of 6 |
| KIDGQRSYQGGRERAIA | DANIRQR | QQYARLPLV | En_Gibbs | 0.15 | 6 of 6 |
| KLQQSVLYESRNKNSVA | DASTRSS | QQYHRLPLS | GP_Gen | -0.53 | 6 of 6 |
| KLSQSMLYESRNKNNVA | NASTRES | QQYHRLPLS | GP_Gen | -0.55 | 6 of 6 |
| TLYGLTNSMSKNKNSVA | EMTTREK | QQYDRLPLM | En_Gen | 0.63 | 6 of 6 |
| KSSQSVLYESQNYNSVA | WASTRES | QQYHRLPLS | Ctrl | 2.85 | 4 of 6 |
| KLSESDLYESRNKNSVA | NASTRES | QQYHRLPLS | GP_Gen | 0.06 | 6 of 6 |
| SLGLSTMLEEYVRNSVA | NNSTREE | QQYDRLPLS | En_Gen | no signal | 0 of 6 |
| MISQVMNTLTRNGNNVA | DLENRED | QQYFRLPLS | En_Gen | no signal | 0 of 6 |
| KVQQSVLYESRNKNSVA | GASTRES | QQYHRLPLS | GP_Gen | -1.78 | 6 of 6 |
| TITEFMDNLSRNRNNVA | DTSTLGS | QSYDRLPLS | En_Gen | 0.91 | 6 of 6 |
| KCSLSVEQLSRQKNSVA | HASTRES | QQYHRLPLS | GP_Gibbs | 0.33 | 6 of 6 |
| ILSQSVLMGSHLKNSVA | QASTRFE | QQYHRLPLS | En_HC | 0.90 | 6 of 6 |
| MISQLFMYGSRQYNSVA | QASTREK | QQYDRLPLI | En_HC | 0.71 | 6 of 6 |
| KISMMSTIESITHNSVA | QTSTREK | QQYDRLPLS | En_HC | 0.82 | 6 of 6 |
| KSSQSVLYESRNKNSIA | DASTRES | QQYHRLPLS | Ctrl | 0.15 | 6 of 6 |
| MIEIIHDGYMEMRSAVA | DTSLVRM | QQYYRLPLM | En_Gibbs | no signal | 0 of 6 |
| KSSQSVLYDEMNKNSVA | AGSTRES | QQYHNLPLS | Ctrl | 0.46 | 6 of 6 |
| QFHSTMIGDQRNVHSIA | NATAAVP | QYYFRLPLS | En_Gibbs | 0.27 | 6 of 6 |
| KLRQVTGYESYLKNSVA | QTSERAS | QDYHRLPLS | En_HC | 1.51 | 6 of 6 |
| HISQMVMYGSCNKNNVA | QVELREE | QQYHRLPLS | En_HC | 1.33 | 5 of 6 |
| KVEQSFLYESRNKNSVA | NASTRES | QQYHRLPLS | GP_Gen | -0.06 | 6 of 6 |
| KQSQSVLMESRNKNSVA | DASTRES | QQYHRLPLS | GP_Gen | -0.10 | 6 of 6 |
| KMSQSVLYESRDKNSVA | WASTRES | QQYGRLPLS | Ctrl | 0.32 | 6 of 6 |
| KVSQSHLYESRNKNSVA | GASTRES | QQYHRLPLS | GP_Gen | -0.30 | 6 of 6 |
| KSPQSVLYESRNKNSVA | WASTRES | QQYHRLPLS | Ctrl | 2.37 | 3 of 6 |
| TLSDLMYMESRNKNSVA | DLVKRES | QQYHRLPLS | En_HC | -0.28 | 6 of 6 |
| KLQQSELYESRNKNSVA | NASTRED | QQYHRLPLS | GP_Gen | -0.01 | 6 of 6 |
| KMSQSVLYESKNKNSVA | MASTRES | QQYCRLPLS | Ctrl | 0.63 | 6 of 6 |
| KFMQSQLYESRNKNSVA | NASTRES | QQYHRLPLS | GP_Gen | 1.01 | 6 of 6 |
| KVSIFMLTMDNANSHIA | NMAEERT | QQYQRLPLS | En_Gibbs | no signal | 0 of 6 |
| YSSQSVLGESRAKNSVA | WASTRES | QQYHRLPLS | Ctrl | 1.91 | 5 of 6 |
| KLSQSVLYEERAKNSVA | NASQRES | QQYHRLPLS | GP_Gen | no signal | 0 of 6 |
| KLSQSQEYESRNKNSVA | DATQRES | QQYHRLPLS | GP_Gibbs | 0.15 | 6 of 6 |
| MFEEYQSEGGANNNAVA | DHECGIR | QQYYRLPLT | En_Gibbs | no signal | 0 of 6 |
| KIGMTLNQLMHQKNNVA | DLVMREM | QQYHRLPLS | En_Gen | 2.41 | 4 of 6 |
| KISQFYEYESRNKNSVA | SASTRMV | QQYHRLPLS | GP_Gibbs | 0.28 | 6 of 6 |
| KLSQSTLYESRNKNSVA | NASTRLS | QQYHRLPLS | GP_Gen | -0.24 | 6 of 6 |
| MLLQATMYGEKQRNSVA | HAQTRED | QQYHRLPLI | En_HC | 1.54 | 2 of 6 |
| KVDQSWQYGSRNKNSVA | NASQRES | QQYHRLPLS | GP_Gibbs | 0.17 | 6 of 6 |
| KLQWYPLGIRDTGSNVA | EAATKYN | QQYMRLPLM | En_Gibbs | 1.26 | 2 of 6 |
| KSSWVYLYESRNKNSVA | GASTRES | QQYHRLPLS | GP_HC | 0.70 | 6 of 6 |
| KYSQSVLYESRNKNSVA | WASTREA | QQYFRLPLS | Ctrl | 1.95 | 6 of 6 |
| KVFPSELGESRNKMSVA | HASTRES | QQYHRLPLS | GP_Gibbs | 0.51 | 6 of 6 |
| KIGMTLNQLMHQKNNVA | DLVMREQ | QQYHRLPLS | En_Gen | 0.85 | 6 of 6 |

The parent sequence was in this pool as ten entries: three were never detected, three once, and four in most replicates, with averages from 0.34 to 2.37.
Nonspecific signal, from three strains lacking the peptide, appeared in 4% of pairings of all light chain designs, centred on 2.64 (5% of these signals below 1.59); values are not corrected for it.
The authors' rule: three or more of the six replicates give a measured affinity, fewer mean a poor binder.